Amino acid sequences for entries named in this document (tags omitted). A change or cut given only in a name is not applied to a line headed by its entry.
UniProt O75116: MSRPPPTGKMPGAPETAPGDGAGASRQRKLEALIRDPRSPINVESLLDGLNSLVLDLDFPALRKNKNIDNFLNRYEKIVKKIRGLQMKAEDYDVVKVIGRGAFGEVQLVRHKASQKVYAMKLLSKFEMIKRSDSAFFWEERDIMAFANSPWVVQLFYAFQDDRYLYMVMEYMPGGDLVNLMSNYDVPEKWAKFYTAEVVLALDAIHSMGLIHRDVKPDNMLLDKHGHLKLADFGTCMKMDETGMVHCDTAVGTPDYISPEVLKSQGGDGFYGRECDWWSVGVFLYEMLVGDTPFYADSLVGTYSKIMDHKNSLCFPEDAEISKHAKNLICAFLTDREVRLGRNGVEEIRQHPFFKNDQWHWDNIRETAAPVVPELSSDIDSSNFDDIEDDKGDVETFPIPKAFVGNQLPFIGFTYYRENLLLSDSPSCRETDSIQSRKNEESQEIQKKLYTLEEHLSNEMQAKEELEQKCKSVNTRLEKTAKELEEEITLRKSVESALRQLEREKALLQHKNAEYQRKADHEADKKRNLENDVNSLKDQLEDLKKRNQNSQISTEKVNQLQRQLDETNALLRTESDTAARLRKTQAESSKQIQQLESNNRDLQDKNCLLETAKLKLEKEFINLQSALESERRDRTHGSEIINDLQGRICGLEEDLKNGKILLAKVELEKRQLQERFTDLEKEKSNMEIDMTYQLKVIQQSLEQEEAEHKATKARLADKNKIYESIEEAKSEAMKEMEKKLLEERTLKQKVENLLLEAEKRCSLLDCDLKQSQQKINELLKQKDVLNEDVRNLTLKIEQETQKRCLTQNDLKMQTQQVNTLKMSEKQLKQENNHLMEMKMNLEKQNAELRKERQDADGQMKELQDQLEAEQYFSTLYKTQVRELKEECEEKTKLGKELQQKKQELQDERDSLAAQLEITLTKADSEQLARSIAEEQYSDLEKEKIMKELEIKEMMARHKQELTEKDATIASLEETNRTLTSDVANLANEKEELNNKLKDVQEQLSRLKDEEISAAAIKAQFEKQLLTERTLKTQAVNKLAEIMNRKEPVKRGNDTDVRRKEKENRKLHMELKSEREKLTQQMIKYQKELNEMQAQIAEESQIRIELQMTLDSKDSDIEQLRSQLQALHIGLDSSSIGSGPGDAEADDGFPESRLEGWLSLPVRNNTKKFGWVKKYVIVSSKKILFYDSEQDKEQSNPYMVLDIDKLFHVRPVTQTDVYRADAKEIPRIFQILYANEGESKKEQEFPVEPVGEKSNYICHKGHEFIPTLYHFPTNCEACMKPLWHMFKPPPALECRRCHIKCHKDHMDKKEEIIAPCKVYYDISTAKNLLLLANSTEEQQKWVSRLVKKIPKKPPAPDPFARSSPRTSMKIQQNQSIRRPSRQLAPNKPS

In ChEMBL document CHEMBL1157712, “Hit to lead account of the discovery of bisbenzamide and related ureidobenzamide inhibitors of Rho kinase” (J Med Chem, 2010):

Key:
[1] = tested on: ROCK1 (Homo sapiens); assay: Inhibition of ROCK1
[2] = in vitro; conditions: human, Caco-2
[3] = target: Rho-associated protein kinase 2 (Homo sapiens, UniProt O75116)

## N#Cc1cccc(NC(=O)NCc2cccc(C(=O)NCCC3CCCNC3)c2)c1 (centres undefined)
[1]
  IC50: 74 nM

## N#Cc1ccc(NC(=O)NCc2cccc(C(=O)Nc3ccc4c(c3)CNCC4)c2)cc1
[1]
  IC50: 40 nM

## CN(C)Cc1ccc(NC(=O)c2cccc(CNC(=O)Nc3ccc(C#N)cc3)c2)cc1
[1]
  IC50: 91 nM

## COc1ccc(C(=O)NCc2cccc(C(=O)NCCC3CCCNC3)c2)cc1OC (centres undefined)
[1]
  IC50: 97 nM

## COc1ccc(C(=O)NCc2cccc(C(=O)Nc3ccc4c(c3)CN(C)CC4)c2)cc1OC
[2]
  efflux ratio: 90.3
[1]
  IC50: 86 nM

## COc1ccc(C(=O)NCc2cccc(C(=O)Nc3ccc(CN(C)C)cc3)c2)cc1OC
[1]
  IC50: 205 nM

## COc1ccc(C(=O)NCc2cccc(C(=O)NCCC3CCNCC3)c2)cc1OC
[3]
  IC50: 176 nM
[1]
  IC50: 180 nM
